{"sequences": {"note": "Sequences of proteins named here, by UniProt entry; tags and fusion partners are left off.", "UniProt O14786, whole entry": "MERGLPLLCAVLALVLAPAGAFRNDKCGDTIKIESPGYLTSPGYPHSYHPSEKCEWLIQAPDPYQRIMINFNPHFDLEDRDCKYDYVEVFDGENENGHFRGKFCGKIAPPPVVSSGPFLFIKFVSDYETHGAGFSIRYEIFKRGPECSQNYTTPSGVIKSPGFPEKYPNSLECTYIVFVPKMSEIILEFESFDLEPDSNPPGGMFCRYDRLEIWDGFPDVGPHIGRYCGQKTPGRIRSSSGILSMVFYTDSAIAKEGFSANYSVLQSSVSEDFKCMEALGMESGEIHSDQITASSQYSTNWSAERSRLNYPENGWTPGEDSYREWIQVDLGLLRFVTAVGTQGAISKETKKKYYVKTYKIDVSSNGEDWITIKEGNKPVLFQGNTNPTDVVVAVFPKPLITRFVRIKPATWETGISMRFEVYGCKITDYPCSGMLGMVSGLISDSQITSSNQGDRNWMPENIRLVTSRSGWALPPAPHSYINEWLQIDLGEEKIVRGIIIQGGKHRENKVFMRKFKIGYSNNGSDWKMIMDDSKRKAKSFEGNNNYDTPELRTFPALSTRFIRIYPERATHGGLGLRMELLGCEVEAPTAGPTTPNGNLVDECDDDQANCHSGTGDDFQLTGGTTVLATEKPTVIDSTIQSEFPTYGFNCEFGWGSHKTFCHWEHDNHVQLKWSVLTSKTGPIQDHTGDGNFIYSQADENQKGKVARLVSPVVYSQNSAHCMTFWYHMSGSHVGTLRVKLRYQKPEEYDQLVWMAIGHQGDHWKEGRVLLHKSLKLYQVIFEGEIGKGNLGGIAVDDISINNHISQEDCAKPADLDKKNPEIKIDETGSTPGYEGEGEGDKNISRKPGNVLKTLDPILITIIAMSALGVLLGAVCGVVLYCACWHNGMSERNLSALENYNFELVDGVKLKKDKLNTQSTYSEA"}, "source": "PubChem BioAssay AID602438", "about": "(Sanford-Burnham Center for Chemical Genomics, 2012)", "note": "Only a part is listed here, and it is no random draw. Active and inactive are the calls of the source.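 The calls were made as follows: active = inhibition or corrected inhibition above about 18%, plus a signal ratio from 0.5 to 1.5 (limit read from the data, passing the limit was not always enough); inactive = the rest.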", "data": [{"biological_target": "Neuropilin-1 (Homo sapiens) (UniProt O14786)", "experiment": "modulators of CendR peptide binding to NRP-1, primary screen, biochemical, fluorescence polarization, uHTS (AID 602438)", "settings": "FAM-RPARPAR peptide binding to NRP-1, fluorescence polarization; at 25 µM; active compounds read high", "values": [{"smiles": "CCC(=O)N(c1ccccc1)C1(COC)CCN(CCn2nnn(CC)c2=O)CC1", "inhibition": "inactive: -2.9%"}, {"smiles": "CCC(=O)N(c1ccccc1)C1(COC)CCN(CCc2cccs2)CC1", "inhibition": "inactive: -6.5%"}]}]}
